Measured values: patent US12285437B2 (The Research Foundation for The State University of new York, priority 2019, dated 2025)
Like-named read-outs stand apart in the source and are kept apart here.

Experiments:
[1] = for Mol. % of DMA 8 / Mol. % of DMI 7 formed / Mol. % of Decomposition Products / Mol. % of Dox Released: 37° C.

pH 6.5/7.4 ratio of Dox released ([1]; 37 C, 45% FBS, after 6 h, listed as prodrug 8): 6
Mol. % of DMA 8 ([1]; pH 6.5, 0 hr, 45% FBS): 90 Mol. %
Mol. % of DMI 7 formed ([1]; pH 6.5, 0 hr, 45% FBS): 8 Mol. %
Mol. % of Decomposition Products ([1]; pH 6.5, 0 hr, 45% FBS): 2 Mol. %
Mol. % of Dox Released ([1]; pH 6.5, 0 hr, 45% FBS): 0 Mol. %
Mol. % of DMA 8 ([1]; pH 6.5, 1 hr, 45% FBS): 61 Mol. %
Mol. % of DMI 7 formed ([1]; pH 6.5, 1 hr, 45% FBS): 10 Mol. %
Mol. % of Decomposition Products ([1]; pH 6.5, 1 hr, 45% FBS): 2 Mol. %
Mol. % of Dox Released ([1]; pH 6.5, 1 hr, 45% FBS): 27 Mol. %
Mol. % of DMA 8 ([1]; pH 6.5, 2 hr, 45% FBS): 47 Mol. %
Mol. % of DMI 7 formed ([1]; pH 6.5, 2 hr, 45% FBS): 13 Mol. %
Mol. % of Decomposition Products ([1]; pH 6.5, 2 hr, 45% FBS): 3 Mol. %
Mol. % of Dox Released ([1]; pH 6.5, 2 hr, 45% FBS): 37 Mol. %
Mol. % of DMA 8 ([1]; pH 6.5, 3 hr, 45% FBS): 38 Mol. %
Mol. % of DMI 7 formed ([1]; pH 6.5, 3 hr, 45% FBS): 13 Mol. %
Mol. % of Decomposition Products ([1]; pH 6.5, 3 hr, 45% FBS): 4 Mol. %
Mol. % of Dox Released ([1]; pH 6.5, 3 hr, 45% FBS): 45 Mol. %
Mol. % of DMA 8 ([1]; pH 6.5, 5 hr, 45% FBS): 11 Mol. %
Mol. % of DMI 7 formed ([1]; pH 6.5, 5 hr, 45% FBS): 13 Mol. %
Mol. % of Decomposition Products ([1]; pH 6.5, 5 hr, 45% FBS): 19 Mol. %
Mol. % of Dox Released ([1]; pH 6.5, 5 hr, 45% FBS): 57 Mol. %
Mol. % of DMA 8 ([1]; pH 6.5, 6 hr, 45% FBS): 8 Mol. %
Mol. % of DMI 7 formed ([1]; pH 6.5, 6 hr, 45% FBS): 12 Mol. %
Mol. % of Decomposition Products ([1]; pH 6.5, 6 hr, 45% FBS): 21 Mol. %
Mol. % of Dox Released ([1]; pH 6.5, 6 hr, 45% FBS): 59 Mol. %
Mol. % of DMA 8 ([1]; pH 6.5, 7 hr, 45% FBS): 6 Mol. %
Mol. % of DMI 7 formed ([1]; pH 6.5, 7 hr, 45% FBS): 11 Mol. %
Mol. % of Decomposition Products ([1]; pH 6.5, 7 hr, 45% FBS): 22 Mol. %
Mol. % of Dox Released ([1]; pH 6.5, 7 hr, 45% FBS): 61 Mol. %
Mol. % of DMA 8 ([1]; pH 6.5, 8.5 hr, 45% FBS): 5 Mol. %
Mol. % of DMI 7 formed ([1]; pH 6.5, 8.5 hr, 45% FBS): 10 Mol. %
Mol. % of Decomposition Products ([1]; pH 6.5, 8.5 hr, 45% FBS): 23 Mol. %
Mol. % of Dox Released ([1]; pH 6.5, 8.5 hr, 45% FBS): 62 Mol. %
Mol. % of DMA 8 ([1]; pH 6.5, 12 hr, 45% FBS): 4 Mol. %
Mol. % of DMI 7 formed ([1]; pH 6.5, 12 hr, 45% FBS): 10 Mol. %
Mol. % of Decomposition Products ([1]; pH 6.5, 12 hr, 45% FBS): 23 Mol. %
Mol. % of Dox Released ([1]; pH 6.5, 12 hr, 45% FBS): 63 Mol. %
Mol. % of DMA 8 ([1]; pH 6.5, 24 hr, 45% FBS): 3 Mol. %
Mol. % of DMI 7 formed ([1]; pH 6.5, 24 hr, 45% FBS): 3 Mol. %
Mol. % of Decomposition Products ([1]; pH 6.5, 24 hr, 45% FBS): 29 Mol. %
Mol. % of Dox Released ([1]; pH 6.5, 24 hr, 45% FBS): 65 Mol. %
Mol. % of DMA 8 ([1]; pH 6.5, 28.5 hr, 45% FBS): 2 Mol. %
Mol. % of DMI 7 formed ([1]; pH 6.5, 28.5 hr, 45% FBS): 2 Mol. %
Mol. % of Decomposition Products ([1]; pH 6.5, 28.5 hr, 45% FBS): 37 Mol. %
Mol. % of Dox Released ([1]; pH 6.5, 28.5 hr, 45% FBS): 59 Mol. %
Mol. % of DMA 8 ([1]; pH 6.5, 32 hr, 45% FBS): 2 Mol. %
Mol. % of DMI 7 formed ([1]; pH 6.5, 32 hr, 45% FBS): 2 Mol. %
Mol. % of Decomposition Products ([1]; pH 6.5, 32 hr, 45% FBS): 37 Mol. %
Mol. % of Dox Released ([1]; pH 6.5, 32 hr, 45% FBS): 59 Mol. %
Mol. % of DMA 8 ([1]; pH 6.5, 48 hr, 45% FBS): 0 Mol. %
Mol. % of DMI 7 formed ([1]; pH 6.5, 48 hr, 45% FBS): 2 Mol. %
Mol. % of Decomposition Products ([1]; pH 6.5, 48 hr, 45% FBS): 44 Mol. %
Mol. % of Dox Released ([1]; pH 6.5, 48 hr, 45% FBS): 54 Mol. %
Mol. % of DMA 8 ([1]; pH 7.4, 0 hr, 45% FBS): 86 Mol. %
Mol. % of DMI 7 formed ([1]; pH 7.4, 0 hr, 45% FBS): 5 Mol. %
Mol. % of Decomposition Products ([1]; pH 7.4, 0 hr, 45% FBS): 9 Mol. %
Mol. % of Dox Released ([1]; pH 7.4, 0 hr, 45% FBS): 0 Mol. %
serum-induced decomposition of DMA 8 ([1]; pH 7.4, 37 C, with FBS): ~45%
Mol. % of DMA 8 ([1]; pH 7.4, 1 hr, 45% FBS): 81 Mol. %
Mol. % of DMI 7 formed ([1]; pH 7.4, 1 hr, 45% FBS): 10 Mol. %
Mol. % of Decomposition Products ([1]; pH 7.4, 1 hr, 45% FBS): 9 Mol. %
Mol. % of Dox Released ([1]; pH 7.4, 1 hr, 45% FBS): 0 Mol. %
Mol. % of DMI 7 formed ([1]; pH 7.4, 4 hr, 45% FBS): 15 Mol. %
Mol. % of Decomposition Products ([1]; pH 7.4, 4 hr, 45% FBS): 29 Mol. %
Mol. % of Dox Released ([1]; pH 7.4, 4 hr, 45% FBS): 11 Mol. %
Mol. % of DMA 8 ([1]; pH 7.4, 8 hr, 45% FBS): 22 Mol. %
Mol. % of DMI 7 formed ([1]; pH 7.4, 8 hr, 45% FBS): 20 Mol. %
Mol. % of Decomposition Products ([1]; pH 7.4, 8 hr, 45% FBS): 47 Mol. %
Mol. % of Dox Released ([1]; pH 7.4, 8 hr, 45% FBS): 11 Mol. %
Mol. % of DMA 8 ([1]; pH 7.4, 24 hr, 45% FBS): 15 Mol. %
Mol. % of DMI 7 formed ([1]; pH 7.4, 24 hr, 45% FBS): 22 Mol. %
Mol. % of Decomposition Products ([1]; pH 7.4, 24 hr, 45% FBS): 50 Mol. %
Mol. % of Dox Released ([1]; pH 7.4, 24 hr, 45% FBS): 13 Mol. %
Mol. % of DMA 8 ([1]; pH 7.4, 32 hr, 45% FBS): 3 Mol. %
Mol. % of DMI 7 formed ([1]; pH 7.4, 32 hr, 45% FBS): 21 Mol. %
Mol. % of Decomposition Products ([1]; pH 7.4, 32 hr, 45% FBS): 65 Mol. %
Mol. % of Dox Released ([1]; pH 7.4, 32 hr, 45% FBS): 11 Mol. %
Mol. % of DMA 8 ([1]; pH 7.4, 45 hr, 45% FBS): 0 Mol. %
Mol. % of DMI 7 formed ([1]; pH 7.4, 45 hr, 45% FBS): 6 Mol. %
Mol. % of Decomposition Products ([1]; pH 7.4, 45 hr, 45% FBS): 84 Mol. %
Mol. % of Dox Released ([1]; pH 7.4, 45 hr, 45% FBS): 10 Mol. %
pH 6.5/7.4 ratio of Dox release (37 C, aq. buffer): 3-4 fold
release of drug (doxorubicin) (3 hr, 37° C., pH 7.4 (FIG. 6)): 10-20%
release of drug (doxorubicin) (3 hrs, 37° C., pH 6.5 (FIG. 6)): 60-70%
Mol. % of DMA 8 (pH 6.5, 0 hr, 37° C.): 94 Mol. %
Mol. % of DMI 7 formed (pH 6.5, 0 hr, 37° C.): 6 Mol. %
Mol. % of Decomposition Products (pH 6.5, 0 hr, 37° C.): 0 Mol. %
Substance: Doxorubicin Disubstituted Maleamic Acid Glutathione Conjugate [Dox-DMA-GSH 8]
